The values below come from paper PMC12171319, “3‐Oxabicyclo[3.1.1]heptane as an Isostere of meta‐Benzene” (Angewandte Chemie (International Ed. in English), 2025).

Each structure is given as a SMILES string.

The conditions of the data set: both, human, pH 7.4.

For the molecule `O=C(O)Cc1ccccc1Nc1c(Cl)cccc1Cl` [Diclofenac], the kel is 0.092 min⁻¹.
